Literature values as cited in US9999613B2, “2H-chromene derivatives as analgesic agents” (OBSHESTVO S OGRANICHENNOI OTVETSVENNOSTJU “LEOFORS”, priority 2014, dated 2018).

Conditions: from ref. [2]; cited from earlier work

For `O=C(O)Cc1ccccc1Nc1c(Cl)cccc1Cl` [Sodium diclofenac, reference compound], the “therapeutic index (IS50)” value is given as 74.
